Bioassay records: PubChem BioAssay, National Center for Advancing Translational Sciences (NCATS)
Hits are enriched below; roughly 0.1% of the tested compounds scored in any of these assays.
Rango release inh: qHTS Assay for Inhibitors of RanGTP induced Rango (Ran-regulated importin-beta cargo) - Importin beta complex dissociation; Snurportin-1 (Homo sapiens) + GTP-binding nuclear protein Ran (Homo sapiens) + Importin …; Biochemical FRET Rango-importin beta, RanGTP-induced dissociation; Potency, µM (titrated, usually from 46.1 µM); hit rate 0.071% among 340,000; AID 540253, 2011; further: nearly all actives have a fitted effect of over 45% in size
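Rango/importin beta premix (0.1/0.25 uM final), PBS + 1 mM DTT + 0.02% Tween-20 + 0.1% BSA; cpd 5 min RT; FRET pre-read; + RanGTP-RCC1 (0.6 uM Ran, 2 mM GTP, 0.2 uM RCC1); 45 min RT; FRET post-read, ex 430, em 486/530 nm.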
Rango-impB inh: qHTS Assay for Inhibitors of Rango (Ran-regulated importin-beta cargo) - Importin beta complex formation | Importin subunit beta-1 (Homo sapiens), Q14974 | Potency, µM (series often up to 92.2 µM) | Rango CFP/YFP FRET sensor + importin beta, 45 min | hit rate 0.031% among 340,000 | AID 540263, 2011; further: nearly all actives have a fitted effect of over 15% in size
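FRET biosensor Rango (snurportin 1 IBB between N-terminal EYFP and C-terminal Cerulean), 50 nM in PBS/1 mM DTT/0.02% Tween-20/0.1% BSA, preincubated 5 min RT with compound; 0.125 microM importin beta added, 45 min RT, CFP/YFP FRET ratio read.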
LMNA splice mod: qHTS Assay for Modulators of Lamin A Splicing. HeLa LMNA splicing GFP/RFP minigene ratio, 48 h. Potency, µM (doses to about 46.1 µM), hits mostly inhibitors. hit rate 0.01% among 200,000. AID 1487, 2009; active means well fitted inhibition curve with a large enough effect in the signal ratio, with a control signal flat, not every such curve was filed as active; inconclusive means small, poorly fitted or top-dose-only effect, or effect the other way, or a change in a side signal; the % refers to the signal ratio
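S3 HeLa cells stably expressing lamin A-EGFP splicing minigene plus DsRed2, 600 cells/well, 48 h compound exposure at 37C. Laser-scanning cytometry; analysed as GFP (500-530 nm)/RFP (575-640 nm) total intensity ratio; 0.5% DMSO vehicle.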
A number is an active result; - = inactive; ? = inconclusive; . = not tested or not shown; ! = not active in a repeat; [ ] = remark or other dose. Unless noted, the call rests on the fitted dose curve.

Sequences of proteins named here, by UniProt entry; tags and fusion partners are left off.
Importin subunit beta-1 (Homo sapiens), Q14974, UniProt Q14974, whole entry, looked up: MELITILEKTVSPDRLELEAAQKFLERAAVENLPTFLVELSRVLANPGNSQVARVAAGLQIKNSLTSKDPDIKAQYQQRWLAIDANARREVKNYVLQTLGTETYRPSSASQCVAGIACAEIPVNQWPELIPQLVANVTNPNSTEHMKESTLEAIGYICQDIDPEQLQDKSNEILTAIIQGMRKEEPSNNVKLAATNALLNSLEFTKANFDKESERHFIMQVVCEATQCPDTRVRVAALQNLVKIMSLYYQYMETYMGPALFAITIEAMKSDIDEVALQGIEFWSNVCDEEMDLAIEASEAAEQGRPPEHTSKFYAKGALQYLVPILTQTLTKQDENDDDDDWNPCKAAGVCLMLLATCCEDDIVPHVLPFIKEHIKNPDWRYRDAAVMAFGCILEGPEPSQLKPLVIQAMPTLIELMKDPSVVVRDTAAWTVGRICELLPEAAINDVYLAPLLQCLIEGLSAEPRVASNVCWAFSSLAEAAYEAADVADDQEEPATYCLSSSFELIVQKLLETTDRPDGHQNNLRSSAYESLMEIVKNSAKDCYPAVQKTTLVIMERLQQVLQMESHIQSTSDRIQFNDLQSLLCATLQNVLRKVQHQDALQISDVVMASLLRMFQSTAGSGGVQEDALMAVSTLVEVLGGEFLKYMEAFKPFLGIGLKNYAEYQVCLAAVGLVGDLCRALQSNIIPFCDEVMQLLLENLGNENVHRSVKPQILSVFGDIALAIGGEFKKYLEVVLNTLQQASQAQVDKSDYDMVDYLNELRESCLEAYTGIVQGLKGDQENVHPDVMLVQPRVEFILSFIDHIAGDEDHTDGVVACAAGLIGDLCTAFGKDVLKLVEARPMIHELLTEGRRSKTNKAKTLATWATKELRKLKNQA

SMILES	Rango release inh	Rango-impB inh	LMNA splice mod
O=C(N/N=C/C=C/c1ccc([N+](=O)[O-])cc1)c1cccs1	-	26µM	-
O=C(N/N=C/C=C\c1ccccc1[N+](=O)[O-])c1cccs1	-	-	-
COc1ccc(NC(=O)CSc2ccccc2)cc1S(=O)(=O)N1CCCCC1	-	23µM	?
COc1ccc(NC(=O)CSc2ccc(NC(C)=O)cc2)cc1S(=O)(=O)N1CCCCC1	-	-	?
CCOC(=O)C1=C(CNCCc2ccc(Cl)cc2)NC(=O)NC1c1cccc([N+](=O)[O-])c1 (configuration not stated)	-	-	?
O=C(CC1SC(N2CCCC2)=NC1=O)Nc1ccc(C(=O)Nc2ncccc2O)cc1 (configuration not stated)	-	-	.
COc1ccc2[nH]c(=O)c(CN(Cc3nnnn3Cc3ccco3)C3CCCCC3)cc2c1	-	?	-
COc1ccc2cc(CN(CCc3ccccc3)Cc3nnnn3Cc3ccco3)c(=O)[nH]c2c1	15µM	?	-
CCCCN1C(=O)/C(=C/C=C2\SCCN2C)SC1=S	-	52µM	.
CC(/C=C1\SC(=S)N(CC(=O)O)C1=O)=C\c1ccccc1	-	-	?
CN1CCS/C1=C/C=C1\SC(=S)N(CC(=O)O)C1=O	?	58µM	.
CN1CCS/C1=C/C=C1/SC(=S)N(Cc2ccccc2)C1=O	-	?	-
CC1CCc2sc(NC(=S)NC(=O)c3ccccc3)c(C#N)c2C1 (configuration not stated)	-	-	-
CC(=O)N1CCN(C(=O)c2ccc3c(c2)OCCO3)CC1	-	-	.
COC(=O)[C@H]1[C@H]2C[C@@H]3c4[nH]c5cc(OC)ccc5c4CCN3C[C@H]2C[C@@H](OC(=O)c2cc(OC)c(OC)c(OC)c2)[C@@H]1OC	12µM	?	?
COc1ccc2c3c([nH]c2c1)[C@@H]1C[C@@H]2[C@@H](C[C@H](O)[C@H](OC)[C@H]2C(=O)O)CN1CC3	.	.	-
CCN(CC)C(=S)SCC(=O)Nc1cccc(C(F)(F)F)c1	-	-	.
CC(NC(=O)OC(C)(C)C)C(=O)Oc1ccc2ccc(=O)oc2c1 (configuration not stated)	?	?	-
CC(C)(C)OC(=O)NCCC(=O)Oc1ccc2ccc(=O)oc2c1	9.2µM	?	-
CC1(C)C2CCC1(CS(=O)(=O)N1CCCc3ccccc31)C(=O)C2 (configuration not stated)	-	-	-
CC(O)CN(CC(C)O)c1ccc2c(c1)Cc1cc([N+](=O)[O-])ccc1-2 (configuration not stated)	?	18µM	.
CC(=NO)c1ccc2c(c1)Cc1cc([N+](=O)[O-])ccc1-2	-	-	.
CCOC(=O)N1CCN(c2ccc(Cl)cc2)CC1	-	-	-
CCOC(=O)N1CCN(c2ccc(O)cc2)CC1	-	-	13µM
COc1cccc(C(=O)/C=C/Nc2ccc(S(=O)(=O)Nc3cnc4ccccc4n3)cc2)c1	?	?	-
SMILES	Rango release inh	Rango-impB inh	LMNA splice mod
O=C(/C=C/Nc1ccc(S(=O)(=O)Nc2cnc3ccccc3n2)cc1)c1ccccc1	8.2µM	?	.
O=C(NNC(=O)c1cccc2ccccc12)c1ccc(Cl)cc1Cl	-	-	.
O=C1/C(=C/C=C/c2ccco2)SC(=S)N1c1ccc(O)cc1	-	-	.
CC(C)C(C(=O)O)N1C(=O)/C(=C/C=C/c2ccco2)SC1=S (configuration not stated)	0.0052µM	?	?
Cc1cc(=O)[nH]c2nnc(SCC(=O)N3CC(C)OC(C)C3)n12 (configuration not stated)	-	-	.
N#CC1=C(N)OC2=C(C(=O)CCC2)C1Cc1ccccc1 (configuration not stated)	-	-	.
CCCCCCCCCCCCCCCC[n+]1cccc(C(=O)N(CC)CC)c1	?	73µM!	-
CCCCCCCC[n+]1cccc(C(=O)N(CC)CC)c1	-	-	?
C[n+]1ccn(CC(=O)c2ccc(Cl)cc2)c1	-	?	-
CCc1ccc2c(c1)C(c1ccc([N+](=O)[O-])cc1)=NNC(c1ccc(F)cc1)=N2	12µM	?	-
CCc1ccc2c(c1)C(c1ccncc1)=NNC(c1ccccc1)=N2	-	-	-
O=C(N/N=C/c1c(O)ccc2ccccc12)Nc1ccccc1	?	65µM	.
O=C(N/N=C/c1cc(Br)ccc1O)Nc1ccccc1	-	?	-
Cc1cc2nn(-c3cccc4ccccc34)nc2cc1N	-	?	-
Cc1ccc(-n2nc3cc(C)c(N)cc3n2)cc1	18µM	?	-
Cc1nn(CC(=O)NCCN2CCCCCC2)c(=O)c2nn(-c3ccccc3)c(C)c12	-	-	.
COC(=O)C1=CN(Cc2ccccc2)C=C(C(=O)OC)C1c1ccc(O)c(OC)c1	-	?	.
COC(=O)C1=CN(Cc2ccccc2)C=C(C(=O)OC)C1c1ccc(OC)c(OC)c1	13µM	?	.
O=C1N=C(N2CCOCC2)S/C1=C\c1cccs1	-	-	-
C=CCn1cc(/C=C2\SC(N3CCOCC3)=NC2=O)c2ccccc21	16µM	?	.
COc1cc2c(cc1OC)CN(c1nc(-c3cccnc3)nc3ccccc13)CC2	-	-	.
CCc1cccc(C)c1N(C(=O)Cn1c(=O)[nH]c2ccccc21)C(C)COC (configuration not stated)	-	-	-
O=C(NCc1cccnc1)/C(=C/c1ccc(-c2cccc(Cl)c2)o1)S(=O)(=O)c1ccccc1	-	-	?
Cc1ccc(C(=O)N/C(=C\c2ccc(-c3cc(Cl)ccc3Cl)o2)C(=O)NCc2cccnc2)cc1	10µM	?	-[0.0737 µM]
CC(C)NC(=O)C(Cc1ccccc1)N1C(=O)c2ccccc2C1=O (configuration not stated)	-	-	-
SMILES	Rango release inh	Rango-impB inh	LMNA splice mod
O=C(N/N=C/c1cccnc1)c1cccc(N2CCCC2=O)c1	-	-	.
CCN(CC)c1ccc(/C=N/NC(=O)c2cccc(N3CCCC3=O)c2)cc1	10µM	?	-
CCn1nc(C(=O)NCc2ccco2)c(Cl)c1Cl	-	-	-
CNC(=O)Cn1c(=O)n(C)c2ccccc21	-	-	-
CC(=O)c1ccc(OC(C)C(=O)NC2CCCCC2C)cc1 (configuration not stated)	-	-	.
CC(C)Oc1ccc(C(=O)OC(C)C(=O)NC2CCCCC2C)cc1 (configuration not stated)	-	26µM	.
CC(=O)c1cccc(-c2ccc3c(=O)[nH]c(Nc4ccccc4)cc3c2)c1	12µM[inhibitor]	?	.
O=c1[nH]c(Nc2ccccc2)cc2ccccc12	?	?	-[0.0737 µM]
COc1ccccc1NC(=O)CC1Nc2ccccc2NC1=O (configuration not stated)	12µM	?	?
COc1ccc(NC(=O)CC2Nc3ccccc3NC2=O)c([N+](=O)[O-])c1 (configuration not stated)	-	-	-
O=C(O)CSC(C(=O)Nc1ccc(Br)cc1)c1ccccc1 (configuration not stated)	-	-	-[9.22 µM]
COc1ccc(OC)c(/C(O)=C/C(=O)C(=O)Nc2cc(C)cc(C)c2)c1	-	-	-
COC(=O)C(=O)/C=C(\O)c1c(C)cc(C)cc1C	-	65µM	.
